Laboratory results published in patent US20190150137A1.

Molecular target: GST-Fg γ^1-17 (GST fusion protein containing the native human Fg γ 395-411 sequence) (human)
Assay: solid-phase assay, immobilised GST fusion, anti-His detection

B1: ClfA229-545 (recombinant His-tagged N2N3 segment of Staphylococcus aureus clumping factor A) (protein)
chain: GTDITNQLTNVTVGIDSGTTVYPHQAGYVKLNYGFSVPNSAVKGDTFKITVPKELNLNGVTSTAKVPPIMAGDQVLANGVIDSDGNVIYTFTDYVNTKDDVKATLTMPAYIDPENVKKTGNVTLATGIGSTTANKTVLVDYEKYGKFYNLSIKGTIDQIDKTNNTYRQTIYVNPSGDNVIAPVLTGNLKPNTDSNALIDQQNTSIKVYKVDNAADLSESYFVNPENFEDVTNSVNITFPNPNQYKVEFNTPDDQITTPYIVVVNGHIDPNSKGDLALRSTLYGYNSNIIWRSMSWDNEVAFNNGSGSGDGIDKPVVP
Kd: 657 nM
